pIC50: −log10 of the molar value.

The test relates to PMA-stimulated P90RSK(Ser380) phosphorylation in HepG2 cells. In words: Cellular P90RSK(Ser380) Phosphorylation Assay. To be noted: Homo sapiens, 1.5 hours compound incubation, PMA 100 ng/mL 30 minutes, normalized to GAPDH, single assay or mean of multiple assays, read-out: Biological Example 2 IC50. In kind it is cell-based. The protocol:
Inhibition of PMA-stimulated P90RSK(Ser380) phosphorylation was determined by the following in vitro cellular mechanistic assay, which comprises incubating cells with a compound for 1.5 hours and quantifying fluorescent pP90RSK(Ser380) signal on fixed cells and normalizing to GAPDH signal.
HepG2 cells were obtained from ATCC and grown in DMEM supplemented with 10% fetal bovine serum. Cells were plated in 96-well plates at 35,000 cells/well and allowed to attach overnight at 37° C./5% CO2. Diluted compounds were then added at a final concentration of 0.5% DMSO. After 1.5 hours compound incubation, cells were stimulated with the addition of phorbol 12-myristate 13-acetate (“PMA”) at a final concentration of 100 ng/mL; the PMA stimulation was a 30-minute incubation at 37° C./5% CO2. After the 30-minute PMA stimulation, cells were washed with phosphate buffered saline (“PBS”) and fixed in 3.7% formaldehyde in PBS at room temperature for 15-20 minutes. This was followed by another wash in PBS and then permeabilization in 100% MeOH at room temperature for 10-15 minutes. Following the permeabilization incubation, cells were washed in PBS/0.05% Tween-20, followed by a block in Odyssey blocking buffer (LI-COR Biosciences) for at least 1 hour. […] Cells were then washed and analyzed for fluorescence at both wavelengths using the Odyssey Infrared Imaging System (LI-COR Biosciences). […]

With `COC(=O)c1cc(Nc2nccc(-c3ccn([C@H](CO)c4ccc(Cl)c(F)c4)c(=O)c3)n2)ccn1` [Example 270, (S)-methyl 4-((4-(1-(1-(4-chloro-3-fluorophenyl)-2-hydroxyethyl)-2-oxo-1,2-dihydropyridin-4-yl)pyrimidin-2-yl)amino)picolinate], the pIC50 was 7.66.

Source of the values: patent publication US8697715B2, “Serine/threonine kinase inhibitors” (Array BioPharma Inc., priority 2012, dated 2014).
